# Screening data from PubChem.
# This is a sample that favours compounds with a hit; in the whole collection about 3.7% have one here.
# A549 tox-1 = A549 cytotoxicity, counter-screen for Nrf2 inhibitors | A549 ARE-Fluc cells, CellTiter-Fluor viability, 18-24 h | Potency, µM (titrated, usually from 46 µM), actives largely listed as inhibitors | 390,000 tested, 0.16% active
#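 A549 ARE-Fluc cells in 5% FBS OPTI-MEM, 5000 cells/well, rested 2 h then exposed to compounds in concentration-response for 18-24 h at 37 °C. Viability by CellTiter-Fluor fluorescence (Ex 405/Em 525) after 30 min; luciferase luminescence (BugLite, 15 min, RT) read afterwards.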
# Nrf2 inh = Nrf2 pathway inhibition | 360,000 tested, 2.1% active | A549 ARE-Fluc reporter, luciferase luminescence, 18-24 h | Potency, µM (doses to about 46 µM), hits mostly inhibitors; note: nearly all actives have a fitted effect of over 60% in size
#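 Cells were seeded and rested 2 h, then exposed to compounds for 18-24 h. CellTiter-Fluor was read first as a viability measure. BugLite was added 15 min before the final luminescent read of ARE-luciferase activity in A549 cells.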
# ClpP mod = qHTS Assay for Activators of ClpP | ATP-dependent Clp protease proteolytic subunit (Bacillus subtilis (strain 168)), P80244 | purified B. subtilis ClpP, FRET peptide cleavage, 20 min | Potency, µM (top dose mostly 57.5 µM) | 340,000 tested, 1.9% active | AID 651965, 2013; active = well fitted falling curve with a large enough effect; inconclusive = small, poorly fitted or top-dose-only effect; inactive = no such curve, though single readings can be large or run the other way; note: the source files actives as falling curves though it sought activators and does not explain the sign; nearly all actives have a fitted effect of over 65% in size
#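 Buffer: 100 mM Tris/HCl pH8, 100 mM KCl, 0.05% low protease BSA, 2.5% glycerol, 0.01% Tween-20. ClpP 10 microg/mL final; 20 min RT; delta FRET normalized to ADEP and DMSO controls.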
# p53 reactivation = mutant p53 re-activation in reporter cells. H1299 p53-A138V BP100-luciferase reporter, luminescence, 24 h. 320,000 tested, 0.063% active. Potency, µM (top dose mostly 92.2 µM), most hits filed as activators; note: nearly all actives have a fitted effect of over 45% in size
#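 H1299 (p53-null), stable ts p53-A138V + BP100-Luc; 1000 cells/well, Opti-MEM/10% FBS; cpd 4 pt, 1:5; 24 h, 37 deg C, 5% CO2; detection reagent 10 min RT; luminescence.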
# Nrf2 activator = activates Nrf2 signaling. AREc32 ARE-luciferase reporter (MCF7-derived line), luminescence, 24 h. Potency, µM (titrated, usually from 46.1 µM), actives largely listed as activators. 410,000 tested, 0.31% active. AID 624171; note: nearly all actives have a fitted effect of over 65% in size
#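 AREc32 cells carrying an ARE-driven firefly luciferase, 1000 cells/well in OPTI-MEM with 5% FBS, dosed after overnight attachment and incubated 24 hr at 37 deg C. Steady-Glo luminescence read after 30 min at RT.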
# miR-21 reporter = raises the signal of a miR-21 reporter; Potency, µM (doses to about 38.3 µM); HeLa miR-21 FLuc reporter, luciferase, 48 h; AID 2288; 340,000 tested, under 10 active; active = well fitted rising curve with a large enough effect; inconclusive = small, poorly fitted or top-dose-only effect; inactive = no such curve, though single readings can be large or run the other way;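 further: miR-21 action dims this reporter so a rising signal means less miR-21 action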
#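 Compounds were titrated across several concentrations (up to approximately 40 uM) and incubated 48 hours with HeLa miR-21-FLuc reporter cells (miR-21 target sequence downstream of FLuc, endogenous miR-21). Readout was firefly luciferase luminescence after lytic detection reagent.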
# FLuc enzyme inh = counter-screen for Nrf2 inhibitors: firefly luciferase enzyme inhibition; shares compounds with Nrf2 inh; purified firefly luciferase, luminescence inhibition; Potency, µM (series often up to 57.5 µM), most hits filed as inhibitors; 1,400 tested, 4% active; note: nearly all actives have a fitted effect of over 65% in size
# A549 tox-2 = toxic to A549 ARE-Fluc cells in Nrf2 counterscreen; Potency, µM (series often up to 46.1 µM), actives largely listed as inhibitors; AID 720523; 1,400 tested, 2% active; A549 ARE-Fluc cells, cytotoxicity counterscreen; shares compounds with Nrf2 inh;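 note: cells exposed to compounds for 18 to 24 hours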
# ARE-Fluc inh = reduces Nrf2 ARE reporter signal in A549 cells. shares compounds with Nrf2 inh. A549 ARE-firefly luciferase reporter, luminescence. Potency, µM (series often up to 46.1 µM), hits mostly inhibitors. 1,400 tested, 74% active; note: nearly all actives have a fitted effect of over 65% in size
# Hits are given with their value; i = inactive; ? = inconclusive; nt = no result given. Unless noted, calls come from the whole dose curve; as a rule, active = well fitted curve in the direction sought with a large enough effect; inconclusive = small, poorly fitted or top-dose-only effect, or another doubt; inactive = no such curve, though single readings can be large; an effect the other way counts as inactive or inconclusive.
SMILES,A549 tox-1,Nrf2 inh,ClpP mod,p53 reactivation,Nrf2 activator,miR-21 reporter,FLuc enzyme inh,A549 tox-2,ARE-Fluc inh
O=C(Nc1nc(-c2ccc(S(=O)(=O)N3CCOCC3)cc2)cs1)c1ccccc1,i,4.61µM,i,i,i,?,?,i,nt
O=C(Nc1nc(-c2cc3ccccc3o2)cs1)c1ccc(S(=O)(=O)N2CCCC2)cc1,i,4.11µM,i,i,i,i,i,i,5.17µM
Cc1ccc(C(=O)Nc2nc(-c3ccccn3)cs2)cc1S(=O)(=O)N1CCOCC1,?,8.2µM,i,?,i,nt,10.7µM,?,1.64µM
CC(=O)N1CCC(N(Cc2ccco2)C(=O)Nc2ccc(Br)cc2F)CC1,i,i,i,nt,i,i,nt,nt,nt
c1ccc(CN2CCC(Nc3ncnc4sccc34)CC2)cc1,i,i,nt,i,i,i,nt,nt,nt
Cc1sc2ncnc(NC3CCN(Cc4ccccc4)CC3)c2c1C,?,4.61µM,nt,i,i,i,i,i,5.8µM
CCN(CC)c1ccc(NC(=O)c2cc3c(=O)n4cccc(C)c4nc3n2C)c(C)c1,i,i,i,nt,i,i,nt,nt,nt
CCOc1ccccc1NC(=O)COC(=O)c1cn(CC)c2nc(C)ccc2c1=O,i,i,i,nt,i,i,nt,nt,nt
COc1ccc(/C=N/NS(=O)(=O)c2ccc(C)cc2)cc1OC(=O)c1ccccc1,i,nt,i,nt,i,i,nt,nt,nt
COc1ccc(/C=N/NS(=O)(=O)c2ccccc2)cc1OC(=O)c1ccc(C)cc1,i,9.2µM,i,i,i,i,i,i,7.31µM
CCC1CCc2nc3sc(C(=O)Nc4cccc(F)c4)c(N)c3cc2C1 (stereo not given),i,i,i,nt,i,i,nt,nt,nt
N#Cc1ccc(N2CCN(c3ccc(F)cc3)CC2)cc1,i,?,?,i,i,i,i,i,i
O=[N+]([O-])c1cccc2nc3ccccc3c(NCCCn3ccnc3[N+](=O)[O-])c12,?,0.146µM,i,nt,i,nt,?,?,nt
CC1(C(=O)Nc2ccc3c(c2)OCCO3)CCC(=O)N1CCOc1ccccc1 (stereo not given),nt,nt,i,nt,i,nt,nt,nt,nt
Cc1ccc2ncc(C)c(C)c2c1,nt,nt,i,nt,nt,nt,nt,nt,nt
Cc1cnc2ccc3ccccc3c2c1C,nt,nt,i,nt,nt,nt,?,i,6.51µM
COc1ccc2c(Sc3ccccc3)c(C(=O)NCc3cccc(OC)c3OC)[nH]c2c1,i,9.2µM,i,nt,i,i,i,i,i
CN(C)c1ccc(CNc2nc3cc(-c4ccc(F)cc4)sc3c(=O)n2C)cc1,nt,nt,i,nt,i,nt,nt,nt,nt
CC1CCN(C(=O)c2cc3c(=O)n(C)c4cc(Cl)ccc4c3s2)CC1,i,?,i,nt,i,i,nt,nt,nt
CC12CC(c3ccccc3O1)N(C(=O)c1ccco1)C(=S)N2c1ccccc1 (stereo not given),?,8.2µM,i,i,i,i,i,i,i
Cc1ccc(NC(=S)N2CCN(Cc3ccc4c(c3)OCO4)CC2)c(C)c1,i,?,i,nt,i,nt,nt,nt,nt
CCN(CC)S(=O)(=O)c1ccc(C)c(NC(=S)N2CCN(Cc3ccc4c(c3)OCO4)CC2)c1,i,6.51µM,nt,?,i,i,i,i,10.3µM
CCN(CC)S(=O)(=O)c1cc(NC(=O)C(=O)c2c(-c3ccccc3)cc3ccccn23)ccc1C,nt,5.17µM,i,i,i,i,i,i,?
Cc1cc(C)c(NC(=O)CSc2ncc3c(n2)-c2cc(Cl)ccc2N(C)S3(=O)=O)c(C)c1,i,4.61µM,i,nt,i,i,i,i,i
CCc1ccccc1NC(=O)CSc1ncc2c(n1)-c1cc(Cl)ccc1N(Cc1ccccc1)S2(=O)=O,i,?,i,nt,i,i,nt,nt,nt
SMILES,A549 tox-1,Nrf2 inh,ClpP mod,p53 reactivation,Nrf2 activator,miR-21 reporter,FLuc enzyme inh,A549 tox-2,ARE-Fluc inh
CCc1ccc2c(c1)NC(=O)C2(C)Cc1ccc(C(F)(F)F)o1 (stereo not given),nt,nt,i,nt,i,nt,nt,nt,nt
CCN(CC)c1nc2cc(OC)ccc2cc1C#N,i,i,i,i,i,i,nt,nt,nt
CCN(CC)c1ccc(/C=C/c2ccc3ccc(OC)cc3[n+]2CC)cc1,?,4.61µM,i,i,i,?,i,?,5.17µM
CCc1ccccc1NC(=O)CN1C(=O)c2cccnc2Sc2ccccc21,i,?,i,nt,i,i,nt,nt,nt
CC(C)Cn1c(N)c(C(=O)CSc2ccc3c(c2)OCCO3)c(=O)n(C)c1=O,i,0.651µM,i,i,i,i,i,i,1.84µM
O=C(Nc1ccc2nc(SCCOc3ccccc3Cl)sc2c1)c1cccs1,i,9.2µM,11.2µM,nt,i,i,i,i,8.2µM
Cc1cc(C)cc(OCCSc2nc3ccc(NC(=O)c4cccs4)cc3s2)c1,i,i,i,nt,i,i,nt,nt,nt
O=C(CN1C(=O)COc2ccc(S(=O)(=O)N3CCCCCC3)cc21)N1CCN(c2ccc(F)cc2)CC1,i,i,i,nt,i,i,nt,nt,nt
C[C@@H]1CN([C@H](C)CO)C(=O)CCCn2cc(nn2)CO[C@H]1CN(C)C(=O)Nc1cccc(F)c1,nt,nt,i,nt,i,nt,nt,nt,nt
Cc1ccc(-n2nnc(-c3nc(-c4cccs4)no3)c2N)cc1C,i,?,i,nt,i,i,nt,nt,nt
Cn1c(=O)c2c(nc(NCc3ccco3)n2C/C=C/c2ccccc2)n(C)c1=O,?,4.11µM,i,i,i,i,i,i,7.31µM
CN1/C(=C\C=N\O)C(C)(C)c2ccccc21,i,i,nt,i,i,i,nt,nt,nt
CN1/C(=C\C=[N+](C)c2ccccc2)C(C)(C)c2ccccc21,9.2µM,0.82µM,i,i,i,?,i,?,1.16µM
O=C(N/N=C(\c1ccccc1)c1cccnc1)c1cccc(F)c1,?,7.31µM,i,?,?,i,i,?,1.84µM
O=C(N/N=C(\Cc1ncc[nH]1)c1ccccc1)c1ccccc1,nt,nt,nt,i,nt,i,nt,nt,nt
O=C(N/N=C(\Cc1ncc[nH]1)c1ccccc1)c1cccnc1,i,2.31µM,nt,?,i,i,i,i,8.2µM
CCOC(=O)C1=CCN(S(=O)(=O)c2ccc(Cl)cc2)C1c1cccc(C)c1 (stereo not given),nt,nt,i,nt,i,nt,nt,nt,nt
COc1cc(NC(=O)c2ccc(-c3nc(COc4ccccc4)c(C)o3)cc2)cc(OC)c1,i,5.17µM,?,nt,i,i,i,i,8.2µM
Cc1oc(-c2ccc(C(=O)Nc3ccc(F)cc3)cc2)nc1COc1ccccc1,i,i,i,nt,i,i,nt,nt,nt
O=C(CN1N=C(c2ccccc2)CCC1=O)NCc1ccc(F)cc1Cl,i,nt,i,nt,i,i,nt,nt,nt
